Experiments:
FGFR1 = FGFR1 (Homo sapiens, UniProt P11362); experiment: Z′-LYTE Detection Kinase Assay, in vitro enzymatic activity; settings: read-out: FGFR1 IC50 (Z′-LYTE Detection); 0.6 nM FGFR1, 2 uM Tyr4 peptide, 10 uM ATP, 60 min 23° C.; tested form: 2HCl
Procedure: To measure enzyme activity by Z′-LYTE™ Detection Kinase Assay, and to evaluate the inhibitory effect of the compounds on FGFR1 using IC50 value of the compounds as an indicator. […]
Reaction Buffer: 50 mM Hepes (pH 7.5), 10 mM MgCl2, 1 mM EGTA, 0.01% Brij-35, 1 mM DTT, 2 mM MnCl2 0.6 nM FGFR1, 2 uM Tyr4 peptide and 10 uM ATP in reaction buffer (50 mM Hepes, pH 7.5, 10 mM MgCl2, 0.01% BRIJ-35, 1 mM EGTA, 4 mM MnCl2, 2 mM DTT). a. Diluting the compounds with DMSO to 10 mM, 3-fold dilution, 11 gradients, duplicate wells. b. Diluting the compound by 1:25 into middle plate at Bravo Automatic Liquid Station, then transferring 2.5 ul to the reaction plate to ensure the final DMSO concentration to be 1%. c. Transferring 5 ul of enzyme/substrate buffer into each well d. Using Multidrop Liquid Workstation to sequentially add ATP solution to each well e. Centrifuging at 1000 rpm for 1 minute f. Placing the reaction plate in an incubator at 23° C. to react for 60 min. a. Preparing a 1:128 mixture of Development Regent B and Development Buffer b. Adding 5 ul to each well and centrifuging at 1000 rpm for 1 minute c. Placing the reaction plate in a thermostat (23° C.) after centrifuging for 90 minutes, removing and reading on Envision (Perkin Elmer) Plate Reader
D. Analyzing Data: Analyzing Data Using XLFIT (IDBS) and Calculating IC50 Values for the Compounds.

By UniProt entry, the sequences of proteins in these tests, tags left out. Residues count along the entry.
UniProt P11362, 22-822 limits assumed: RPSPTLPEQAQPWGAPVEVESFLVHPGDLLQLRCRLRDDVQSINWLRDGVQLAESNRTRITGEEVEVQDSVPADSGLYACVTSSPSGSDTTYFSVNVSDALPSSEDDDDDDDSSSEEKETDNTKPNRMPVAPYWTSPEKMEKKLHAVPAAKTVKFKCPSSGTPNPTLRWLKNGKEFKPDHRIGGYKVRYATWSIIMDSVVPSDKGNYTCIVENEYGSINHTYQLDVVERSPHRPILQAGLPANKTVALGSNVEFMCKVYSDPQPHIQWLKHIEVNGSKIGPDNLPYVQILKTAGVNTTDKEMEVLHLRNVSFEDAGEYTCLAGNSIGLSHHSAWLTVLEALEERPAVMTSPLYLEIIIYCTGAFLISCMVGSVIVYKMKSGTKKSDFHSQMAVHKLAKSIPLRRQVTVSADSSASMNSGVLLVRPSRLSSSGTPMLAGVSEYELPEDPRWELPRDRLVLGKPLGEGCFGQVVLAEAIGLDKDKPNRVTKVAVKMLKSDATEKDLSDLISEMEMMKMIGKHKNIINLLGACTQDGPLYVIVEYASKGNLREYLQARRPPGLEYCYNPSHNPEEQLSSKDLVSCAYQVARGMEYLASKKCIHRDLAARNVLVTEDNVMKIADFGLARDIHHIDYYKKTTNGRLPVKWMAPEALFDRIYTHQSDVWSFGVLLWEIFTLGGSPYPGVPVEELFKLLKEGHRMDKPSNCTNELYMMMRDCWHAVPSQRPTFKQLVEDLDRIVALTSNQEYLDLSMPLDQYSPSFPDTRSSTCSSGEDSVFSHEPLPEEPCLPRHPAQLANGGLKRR

SNU-16 cell = experiment: CellTiter-Glo Luminescent Cell Viability Assay; settings: read-out: SNU-16 IC50 (CellTiter-Glo Detection); SNU-16 cells, 3 days; tested form: 2HCl
Procedure: To detect the change of intracellular ATP by CellTiter-Glo® Luminescent Cell Viability Assay, and to evaluate the inhibitory effect of the compounds on in vitro cell SNU-16 using IC50 value of the compounds as an indicator.
Cell line: SNU-16 cell strain d. Diluting SNU-16 with medium, adding the diluted cells to the 384 plate (Greiner. 781090) (50 μL/well, SNU-16 cell 750 cells/well) with multi-channel pipette. Placing the cell plate in a 37° C., 5% CO2 incubator overnight. […]
g. Diluting the compound with DMSO to 10 mM, 3-fold dilution, 11 gradients, duplicate wells. h. Transferring 2.4 ul of the compound to the middle plate added with 47.6 ul of cell culture media at Bravo Automatic Liquid Station. Then transferring 5 ul to the cell culture plate (55 ul) to ensure the final DMSO concentration to be 0.4%. […]
i. Placing the cell culture plate in 5% CO2 incubator at 37° C. to continue cultivating for 3 days. d. Balancing Cell Titer Glo Reagent to room temperature e. Taking 30 ul of Cell Titer Glo Reagent in a 1:2 ratio into each well and gently mixing for 2 minutes f. Placing the cell culture plate in an incubator (23° C.) for 10 minutes, taking out and centrifuging at 1000 rpm for 1 minute g. Reading on Envision (Perkin Elmer) Plate Reader.
H. Analyzing Data: Analyzing the Data Using XLFIT (IDBS) and Calculating IC50 Values for the Compounds.

- IC50 (FGFR1): 50 to 1000 nM
- IC50 (SNU-16 cell): < 10 nM
Compound: C[C@@H](Oc1ccc2[nH]nc(/C=C(\F)c3ccc(O[C@@H]4CCOC4)nc3)c2c1)c1c(Cl)cncc1Cl

— patent publication US10519133B2, “Vinyl compounds as FGFR and VEGFR inhibitors” (MEDSHINE DISCOVERY INC., priority 2015, dated 2019)
